The values below come from patent publication US9474759B2 (priority 2011, dated 2016).

The series in a line: Cardiac toxicity (in vitro ADMET profile).

On to `CC(C)C[C@H](NC(=O)OCc1ccccc1)C(=O)N[C@@H](CC1CCNC1=O)C(=O)C(=O)NC(C)C` (some centres unmarked) [GC375], for which the “cardiac toxicity: none observed up to” value was above 100 µM.

With `CC(C)C[C@H](NC(=O)OCc1ccccc1)C(=O)N[C@H](C=O)C[C@@H]1CCNC1=O` [GC373], the “cardiac toxicity: none observed up to” value is above 100 µM.
